Biological target: GST-SV40 NLS (SV40)
Assay: ELISA; solid phase (microtiter-plate) binding assay; plates coated with 15 ng GST-NLS or GST per well; His/S-ΔIBB importin-α1 in PBS, 0.1% Tween20, 3% BSA, 2 mM DTT, 0.2 mM PMSF overnight at 4 °C; EDC cross-linking; detection with S-protein-HRP; one-site binding fit; triplicate

## His/S-ΔIBB importin-α1 (mouse, residues 70–529), wild-type (from UniProt P52293 70-529) (domain or fragment)
  Kd: 5.1 nM

— article PMC4601014
